From PubChem BioAssay AID540253 (National Center for Advancing Translational Sciences (NCATS), 2011) come the findings set out here.

Molecules are shown by their SMILES. Only a part is listed here, and it is no random draw. Some of these compounds have results that are not shown, active ones among them. Inconclusive results are not listed. Active and inactive are the calls of the source. Calls come from the whole dose curve.

The target of the assay is Snurportin-1 (Homo sapiens) + GTP-binding nuclear protein Ran (Homo sapiens) + Importin subunit beta-1 (Homo sapiens) (UniProt O95149+P62826+Q14974). Nature of the assay: qHTS Assay for Inhibitors of RanGTP induced Rango (Ran-regulated importin-beta cargo) - Importin beta complex dissociation. Note: % of control where 0% means no effect; nearly all actives have a fitted effect of over 45% in size. As to conditions: Biochemical FRET Rango-importin beta; at 46.1 µM (top of the series).
In the case of `COc1cc(C(=O)NCC2(N(C)C)CCCCC2)c([N+](=O)[O-])cc1OC`, the activity change, negative = inhibition is inactive: -0.313%.
`CN(C)C1(CNC(=O)c2ccc(Br)cc2)CCCCC1`: the activity change, negative = inhibition was inactive: 0.37%.
The figure for `O=C(NCC1(N2CCCCC2)CCCCC1)c1cccc(Cl)c1` is inactive: -14.6%; for `COc1cccc(C(=O)NCC2(N3CCCCC3)CCCCC2)c1` it is inactive: 6.57%; for `COc1ccc(Cl)cc1C(=O)NCC1(N(C)C)CCCCC1` it is inactive: -3.31%.
In the case of `O=C(OC1CN2CCC1CC2)C(CO)(c1ccccc1)c1ccccc1` (stereo not given), the activity change, negative = inhibition is inactive: -3.73%.
The result for `CC(C)Oc1ccc(C(=O)NCC2(N(C)C)CCCCC2)cc1` reads inactive: 1.01%; that for `O=C(OCCN1CCCC1)C(O)(c1ccccc1)c1ccccc1`, inactive: 8.8%; that for `CN(C)c1cccc(C(=O)NCC2(N(C)C)CCCCC2)c1`, inactive: -19%.
Turning to `COc1ccc(Br)c(C(=O)NCC2(N3CCCCC3)CCCCC2)c1`, the activity change, negative = inhibition is inactive: -20%.
In the case of `CN1[C@@H]2CC[C@H]1CC(OC(=O)C(O)(c1ccccc1)c1ccccc1)C2` (stereo not given in full), the activity change, negative = inhibition is inactive: 4.48%.
The figure for `O=C(NCC1(N2CCCCC2)CCCCC1)c1cc([N+](=O)[O-])ccc1Cl` is inactive: -5.11%.
In the case of `Cc1ccc(C(=O)NCC2(N3CCCCC3)CCCCC2)cc1`, the activity change, negative = inhibition is inactive: 15.2%.
The result for `CCN(CC)CC(C)C(C)OC(=O)C(O)(c1ccccc1)c1ccccc1` (stereo not given) reads inactive: 12.5%.
The figure for `COc1cc(SC)ccc1C(=O)NCC1(N(C)C)CCCCC1` is inactive: 2.5%; for `CC(C)N1C(=O)CC2(CCN(CCOC(=O)C(O)(c3ccccc3)c3ccccc3)CC2)C1=O` it is inactive: 5.69%.
Regarding `Cc1ccccc1C(=O)NCC1(N2CCCCC2)CCCCC1`, the activity change, negative = inhibition is inactive: 20.2%.
The figure for `CN(C)C1CCCC1OC(=O)C(O)(c1ccccc1)c1ccccc1` (stereo not given) is inactive: -7.41%; for `CN(C)c1ccc(C(=O)NCC2(N(C)C)CCCCC2)cc1` it is inactive: -4.29%; for `COc1ccc(C(=O)NCC2(N(C)C)CCCCC2)cc1` it is inactive: -7.16%.
With `Cc1cc(C(=O)NCC2(N3CCCCC3)CCCCC2)ccc1[N+](=O)[O-]`, the activity change, negative = inhibition was inactive: -11.3%.
As for `CCN1CCCC(OC(=O)C2(O)c3ccccc3C=Cc3ccccc32)C1` (stereo not given), the activity change, negative = inhibition was inactive: 3.96%.
On to `O=C(NCC1(N2CCCCC2)CCCCC1)c1cccc(Br)c1`, for which the activity change, negative = inhibition was inactive: -1.83%.
The result for `C=CCN1CCN(CCOC(=O)C(O)(c2ccccc2)c2ccccc2)CC1` reads inactive: 0.0986%; that for `O=C(NCC1(N2CCCCC2)CCCCC1)c1cc(F)c(F)cc1Cl`, inactive: -2.03%.
